Test results reported in article PMC3097170 (The Journal of pharmacology and experimental therapeutics, 2011).

Sequences of proteins named here, by UniProt entry; tags and fusion partners are left off.
UniProt P32300, whole entry: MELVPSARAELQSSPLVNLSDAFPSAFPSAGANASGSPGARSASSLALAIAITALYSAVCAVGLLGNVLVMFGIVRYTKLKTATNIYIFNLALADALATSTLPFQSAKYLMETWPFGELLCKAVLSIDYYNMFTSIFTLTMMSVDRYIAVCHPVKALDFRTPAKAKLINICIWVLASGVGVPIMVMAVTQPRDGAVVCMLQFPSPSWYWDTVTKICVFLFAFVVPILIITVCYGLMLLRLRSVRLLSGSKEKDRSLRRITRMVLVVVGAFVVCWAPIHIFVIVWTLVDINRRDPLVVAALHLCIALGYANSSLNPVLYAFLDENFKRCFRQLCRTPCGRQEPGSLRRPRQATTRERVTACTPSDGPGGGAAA
UniProt P42866, whole entry: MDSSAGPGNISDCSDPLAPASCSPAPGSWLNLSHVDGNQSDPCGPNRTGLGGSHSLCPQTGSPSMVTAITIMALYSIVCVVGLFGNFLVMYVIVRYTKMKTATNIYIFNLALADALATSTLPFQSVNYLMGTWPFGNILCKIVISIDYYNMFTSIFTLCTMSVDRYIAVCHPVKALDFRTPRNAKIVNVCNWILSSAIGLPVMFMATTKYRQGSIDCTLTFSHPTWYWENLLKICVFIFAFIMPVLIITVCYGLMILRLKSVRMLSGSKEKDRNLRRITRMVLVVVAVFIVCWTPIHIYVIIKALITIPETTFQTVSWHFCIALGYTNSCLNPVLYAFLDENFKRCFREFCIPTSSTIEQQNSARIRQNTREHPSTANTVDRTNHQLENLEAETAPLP

Tests used:
[1] = target: DOR/MOR heteromers (Mus musculus, UniProt P32300+P42866); assay type: cell-based, murine
[2] = target: MOR homomers (Mus musculus, UniProt P42866); assay type: cell-based, murine; details: pre-treatment with MOR-specific antagonist, dose-dependent

CTAP was tested, and the “inhibition of methadone-induced endocytosis of DOR/MOR heteromers” value [1] was “blocked endocytosis” and the “inhibition of methadone-induced endocytosis of MOR homomers” value [2] was “blocked endocytosis”.
